From ChEMBL document CHEMBL4765437, “Design, synthesis and biological evaluation of pyrazolo[3,4-d]pyrimidine-based protein kinase D inhibitors” (Eur J Med Chem, 2020)

Target: T1, Serine/threonine-protein kinase D3 (Homo sapiens, UniProt O94806)
T1 sequence (O94806 whole entry): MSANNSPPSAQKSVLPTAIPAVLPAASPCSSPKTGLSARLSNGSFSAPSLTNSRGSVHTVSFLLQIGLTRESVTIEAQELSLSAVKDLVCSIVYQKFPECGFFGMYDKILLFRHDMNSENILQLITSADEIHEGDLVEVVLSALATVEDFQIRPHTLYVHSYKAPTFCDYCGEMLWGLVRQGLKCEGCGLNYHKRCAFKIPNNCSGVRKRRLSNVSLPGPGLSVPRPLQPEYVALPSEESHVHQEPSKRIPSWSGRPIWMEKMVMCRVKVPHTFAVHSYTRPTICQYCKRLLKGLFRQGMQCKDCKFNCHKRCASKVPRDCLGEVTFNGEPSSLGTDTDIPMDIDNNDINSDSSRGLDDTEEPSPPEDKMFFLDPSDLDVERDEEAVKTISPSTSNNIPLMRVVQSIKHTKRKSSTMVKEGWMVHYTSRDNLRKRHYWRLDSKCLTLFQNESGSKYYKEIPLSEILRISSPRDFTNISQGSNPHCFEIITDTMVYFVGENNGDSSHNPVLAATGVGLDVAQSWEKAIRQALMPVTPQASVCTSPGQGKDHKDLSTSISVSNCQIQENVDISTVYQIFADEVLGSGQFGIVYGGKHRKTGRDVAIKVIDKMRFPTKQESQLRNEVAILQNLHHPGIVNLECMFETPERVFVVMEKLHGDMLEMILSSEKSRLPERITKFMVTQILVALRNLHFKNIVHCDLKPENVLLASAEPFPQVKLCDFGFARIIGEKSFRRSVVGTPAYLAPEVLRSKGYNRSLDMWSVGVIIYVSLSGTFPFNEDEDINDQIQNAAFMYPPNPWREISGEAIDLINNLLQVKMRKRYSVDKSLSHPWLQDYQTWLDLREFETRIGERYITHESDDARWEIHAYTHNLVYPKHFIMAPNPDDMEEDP
Assay: Inhibition of recombinant FLAG-tagged PKD3 (unknown origin) expressed in HEK293T cells using Syntide-2 as substrate measured after 15 mins by ADP-Glo assay

IC50: 6 nM
SMILES: CC[C@@H](N)CNc1ccnc(-c2cc(-c3cnn(C)c3)ccc2O)n1
